Paper PMC9189845, “Structure–Activity Relationships of 8-Hydroxyquinoline-Derived Mannich Bases with Tertiary Amines Targeting Multidrug-Resistant Cancer” (Journal of Medicinal Chemistry, 2022)

Key:
MES-SA cells = test: PrestoBlue viability assay, MES-SA cells
A431 cells = test: PrestoBlue viability assay, A431 cells; conditions: read-out: IC50 / µM A431; 72 h incubation
MES-SA/Dx5 cells = test: PrestoBlue viability assay, MES-SA/Dx5 cells (MDR, P-gp positive)
A431-B1 cells = test: PrestoBlue viability assay, A431-B1 (A431-ABCB1) cells; conditions: read-out: IC50 / µM A431-B1; 72 h incubation

SMILES: Oc1c(CN(CCCl)CCCl)ccc2cccnc12
- pIC50 value MES-SA (MES-SA cells; MES-SA cells, without TQ): 4.69
- IC50 (MES-SA cells; read-out: IC50 / μM MES-SA, absence of TQ, 72 h incubation): 20.7 µM
- IC50 (A431 cells): 107 µM
- pIC50 value MES-SA/Dx5 (MES-SA/Dx5 cells; MES-SA/Dx5 cells, without TQ): 4.65
- IC50 (MES-SA/Dx5 cells; read-out: IC50 / μM MES-SA/Dx5, absence of TQ, 72 h incubation): 22.7 µM
- SR (MES-SA/Dx5 cells; selectivity ratio MES-SA vs MES-SA/Dx5, without TQ): 0.91
- IC50 (A431-B1 cells): > 200 µM

Only a part of the results on these compounds is given; other tests are left out.
